Bioassay records (PubChem BioAssay)
UUG fidelity: modulators of yeast start codon fidelity, primary screen, whole organism, S. cerevisiae, single point, plate reader; S. cerevisiae UUG-firefly luciferase reporter, luminescence/redox ratio; activity score, % at 18.7 µM; actives 0.13% (n = 350,000); AID 602363, 2012;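 active = replicate mean at a twofold rise or more, about +100% in these data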;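 also: firefly luciferase made from a UUG start codon reports start codon fidelity; reporter light over untreated wells divided by growth signal over untreated wells; some hits fall short of that in this replicate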
pCIP destab: p/CIP protein destabilization. actives 0.01% (n = 290,000). F442A p/CIP-EGFP cells, EGFP fluorescence, 16 h. Q05BA5. decrease of EGFP signal, % at 10 µM. AID 1984;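 active = EGFP signal decrease of at least 30% at 10 µM or well 3 SD below plate mean, unless failing retest; inactive = the rest, including hits failing retest or dose response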
Granule exo inh: lytic granule exocytosis inhibition | TALL-104 LAMP-1 surface exposure, flow cytometry; cells stimulated with thapsigargin and PMA | inhibition, % at 10 µM | actives 0.66% (n = 360,000) | AID 651702;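 active = inhibition above about 55%, limit read from the data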
PKA-R2B activ: activators of human PKA-R2B complex | PKA-R2B holoenzyme dissociation, Cy5-IP20 fluorescence polarization; R2B truncated from residue 108, S112A mutant; 0% DMSO only, 100% 113 µM cGMP | activation, % at 11.4 µM | actives 0.079% (n = 340,000) | AID 504700;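 active = activation above a cutoff set at the mean over all compounds plus 3 SD, cut at about 18% in these data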;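 note: higher means more holoenzyme dissociation and a rise in polarization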
ABCB6 inh MLPCN: inhibitors of human ABC transporter ABCB6 | Q9NP58 | K562-ABCB6 porphyrin accumulation, flow cytometry, 1 h; active compounds read low | fluorescence ratio to DMSO, % at 10 µM | actives 0.19% (n = 360,000);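 active = fluorescence ratio to DMSO below 75%, the collection mean minus 3 SD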;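 note: signal is porphyrin accumulated inside mitochondria; 100% equals median channel fluorescence of DMSO control wells; lower ratio means ABCB6 inhibition with less porphyrin fluorescence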
PKA-R1A act: activates the PKA-R1A holoenzyme complex. actives 0.083% (n = 340,000). P00514+P68181. PKA-R1A dissociation, Cy5-IP20 fluorescence polarization; scaled: DMSO 0%, 113 µM cGMP 100%. activation, % at 11.4 µM;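 active = percent activation above the mean of all tested compounds plus 3 SD, cut at about 19% in these data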;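 note: higher means more PKAc released from R1A so a rise in polarization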
An asterisk follows results filed as active; i = inactive; · = no result. Hits are enriched below; roughly 0.94% of the tested compounds scored in any of these assays.

Start of the data: the first four entries as a preview:
UUG fidelity	pCIP destab	Granule exo inh	PKA-R2B activ	ABCB6 inh MLPCN	PKA-R1A act	SMILES
5	-2	88*	12	94	0	COc1ccc(CC(=O)Nc2cccc(-c3nnc(-c4ccc(C)cc4)o3)c2)cc1OC
-10	-22	22	-2	103	-3	COc1ccc(CC(=O)Nc2cccc(-c3nnc(-c4cccc(C)c4)o3)c2)cc1OC
1	-2	79*	-6	97	-14	O=C(Nn1c(COc2ccccc2)nc2ccccc2c1=O)C(Cl)(Cl)Cl
-9	6	70*	11	99	-8	CCCN1C(=O)/C(=C/c2ccc(C)o2)SC1=Nc1ccc(OCC)cc1

All compounds of this part, from the start:
UUG fidelity	pCIP destab	Granule exo inh	PKA-R2B activ	ABCB6 inh MLPCN	PKA-R1A act	SMILES
5	-2	88*	12	94	0	COc1ccc(CC(=O)Nc2cccc(-c3nnc(-c4ccc(C)cc4)o3)c2)cc1OC
-10	-22	22	-2	103	-3	COc1ccc(CC(=O)Nc2cccc(-c3nnc(-c4cccc(C)c4)o3)c2)cc1OC
1	-2	79*	-6	97	-14	O=C(Nn1c(COc2ccccc2)nc2ccccc2c1=O)C(Cl)(Cl)Cl
-9	6	70*	11	99	-8	CCCN1C(=O)/C(=C/c2ccc(C)o2)SC1=Nc1ccc(OCC)cc1
-14	-1	9	-5	104	-10	COc1ccc(N=C2S/C(=C\c3ccc(C)o3)C(=O)N2CC(C)C)cc1
-19	-14	80*	-14	108	-3	CCCN1C(=O)/C(=C/c2ccc(C)o2)SC1=Nc1ccc(OC)cc1
0	-28	82*	4	i	0	COc1ccc(N=C2S/C(=C\c3ccc(N4CCOCC4)o3)C(=O)N2CCc2c[nH]c3ccccc23)cc1
-3	-6	18	-8	95	-1	CN(C)c1ccc(C(C(=O)NCC2CCCO2)N(C(=O)c2snc(C(N)=O)c2N)c2ccccc2)cc1 (stereo not drawn)
-4	-8	39	-6	102	-3	NC(=O)c1nsc(C(=O)N(c2ccccc2F)C(C(=O)NCc2ccccc2)c2ccc(O)cc2)c1N (stereo not drawn)
-12	-9	97*	-9	94	-4	Cc1cccc(N(C(=O)c2snc(C(N)=O)c2N)C(C(=O)NCC2CCCO2)c2ccc(N(C)C)cc2)c1 (stereo not drawn)
-8	-15	64*	1	99	-4	Cc1ccccc1N(C(=O)c1snc(C(N)=O)c1N)C(C(=O)NCc1ccccc1)c1ccc(O)cc1 (stereo not drawn)
18	·	·	·	·	·	Cc1noc(C)c1S(=O)(=O)N(C)C[C@H]1OCCCC[C@@H](C)Oc2ccc(NC(=O)C3CCCCC3)cc2C(=O)N([C@@H](C)CO)C[C@@H]1C
-31	0	83*	11	109	4	Cn1c(O)c(/C=N/NC(=O)c2cc3ccccc3cc2O)c2ccccc21
·	·	64*	-5	102	0	COc1ccc(OC)c(C2=Nn3c(nnc3-c3ccncc3)SC2)c1
-10	-10	13	-3	100	10	COc1ccc(OC)c(C2=Nn3c(nnc3-c3cc(OC)c(OC)c(OC)c3)SC2)c1
-15	-15	6	-2	96	-3	COc1cccc(/C=N/NC(=O)c2ccc3nc[nH]c3c2)c1O
-35	-13	67*	-12	95	0	CCN(CC)c1ccc(/C=N/NC(=O)c2ccc3nc[nH]c3c2)c(O)c1
·	·	107*	5	92	3	COC1=C(Br)C(=O)c2ncccc2C1=O
-16	8	0	3	101	0	O=C1c2cccnc2-c2ncccc21
·	·	105*	·	95	·	O=C1C(=O)c2cccnc2-c2ncccc21
-2	-10	-2	3	97	0	COc1ccccc1N1C(=O)c2cccnc2C1=O
0	·	·	·	·	·	CO[C@H]1CN(C)C(=O)c2cc(NC(C)=O)ccc2OC[C@@H](C)N(C(=O)C2CCCCC2)C[C@H]1C
111*	3	4	5	109	16	O=C(CSc1nc(-c2ccccc2)c(-c2ccccc2)o1)N1CCOCC1
·	-7	-4	-11	102	-8	COc1cc2ccccc2nn1
18	-100	62*	3	264	-5	COc1ccc2c(n1)Sc1nc3ccccc3nc1N2
1	·	·	·	·	·	C[C@H](CO)N1C[C@H](C)[C@H](CN(C)CC2CC2)Oc2cc(C3=CCCC3)ccc2S1(=O)=O
-5	2	52	-13	103	0	COc1ccc(C2c3ccc4ccccc4c3Oc3ncn(CCO)c(=N)c32)cc1 (stereo not drawn)
-12	-12	65*	-4	100	5	COc1ccc(C2c3ccc4ccccc4c3Oc3ncn(CCCO)c(=N)c32)cc1 (stereo not drawn)
